## Binding of CDR-mutated scFvs to a peptide of the spike HR2 region

Target peptide (SARS-CoV-2 spike, HR2 region): PDVDLGDISGINAS

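The parent was found by panning a naive human phage display library on the peptide. The variants were designed computationally from a first round of random CDR variants and then made and measured. Group labels follow the data file (Ctrl: baseline library sampled from a position-specific scoring matrix, with some repeated check sequences; Rand: our label for a block that the file lists under HC and that is probably the random mutants of the ten best first-round binders; GP: Gaussian process model; HC: hill climbing; Gen: genetic algorithm; a sequence that several methods proposed may carry one label only). Affinity was read by AlphaSeq, a pooled yeast mating assay with surface-displayed partners. Pairs that bind mate more often; barcode pairs of the diploids are counted by sequencing. A regression on co-assayed BCL2-family reference pairs converts the normalised counts of each replicate to an apparent Kd. Each pool was mated in six replicate cultures.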

Parent: Ab-14, a human scFv built as VH, a 15-residue (Gly4Ser)3 linker, VL. Only the CDRs of the light chain vary.
VH: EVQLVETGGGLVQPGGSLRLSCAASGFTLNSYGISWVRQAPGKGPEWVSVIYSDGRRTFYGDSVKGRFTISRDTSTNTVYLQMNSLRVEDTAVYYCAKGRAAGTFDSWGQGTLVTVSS
VL: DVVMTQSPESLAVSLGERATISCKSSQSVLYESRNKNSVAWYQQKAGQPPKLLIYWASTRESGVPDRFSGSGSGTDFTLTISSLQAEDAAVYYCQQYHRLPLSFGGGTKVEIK

Variants are written as CDR1, CDR2 and CDR3 of the light chain (limits as in the source). Parent: KSSQSVLYESRNKNSVA, WASTRES, QQYHRLPLS.
This list holds designs with at most six substitutions.
Numbers give log10(Kd / nM), so 0 is 1 nM and 3 is 1 µM. Smaller is tighter.
The mean shown is taken over the replicates in which the pair was detected.
A pair that was not seen in any replicate is written "nd"; this usually means weak binding, but a binder can also be missed.
The authors averaged sequences with at least three values out of six and counted those with two or fewer as poor binders.

Variant KSSQNVLYQSRNKNSVA / WASTRES / QQYHRLPLS [Ctrl] showed 2.96 (3 of 6 replicates). With KSSQNVLYESRNKNSVA / DASTRES / QQYHRLPLS [Ctrl] the result was 0.48 (6 of 6 replicates). With KFSQSVLYESRVKNSVA / EASTRES / QQYHRLPLS [GP_HC] the result was -0.31 (6 of 6 replicates). Variant KLSQSVEYESRNKNSVA / EASTREV / QQYHRLPLS [GP_Gen] showed -0.26 (6 of 6 replicates). Variant ALRQSTLYESRNKNSVA / WASTMES / QQYHRLPLS [Rand] showed nd (0 of 6 replicates). With HSSQSVLYESRNKNSVA / GASTRES / QQYHRLPLS [Ctrl] the result was 0.38 (6 of 6 replicates). With KFSISYLGESRNKNSVA / EASTRES / QQYHRLPLS [GP_HC] the result was 0.06 (6 of 6 replicates).

For KASQSVLYESHNKNSVA / WADTRES / QQYHRLPLS [Ctrl], the assay gave 1.76 (6 of 6 replicates). For KSSQSVFYESRNKNSVA / WASTRED / QQYHRLTLS [Ctrl], the assay gave nd (0 of 6 replicates). For KSSQGLLYESRNKNSVA / WASTRES / QTYHRLPLS [Ctrl], the assay gave 2.75 (4 of 6 replicates). With KSVQSVLYESRNKNSVA / WASTRES / QQYHRLPLS [Ctrl] the result was nd (0 of 6 replicates). Variant KSSISQLYESRNTNSVA / EASTRES / QQYHRLPLS [GP_HC] gave 0.21 (6 of 6 replicates). For RSSQSVLGESRYKNSVA / KASTRES / QQYHRLLLS [Ctrl], the assay gave nd (0 of 6 replicates). Variant KISQSVLYESRNKNSVA / WASTRES / QQYHRAPIS [Ctrl] showed 1.70 (4 of 6 replicates).

Variant KSSQSVLYESRVKNSIA / WASTRES / QQYHRLPLS [Ctrl] showed nd (0 of 6 replicates). For KSSTSVLYESRNHNSVA / WASTRES / QQYHRLPLS [Ctrl], the assay gave 2.59 (3 of 6 replicates). Variant KSSQSVLYESDNKNSVA / WARTRES / QQYHRMPLS [Ctrl] showed 3.64 (1 of 6 replicates). Variant KLPQGVLYESRNKNSVA / GASCRES / QQYHRLPLS [GP_HC] gave -0.23 (6 of 6 replicates). Variant KKSQSVLYESRNKNSVA / WVVTRES / QQYHRLPLS [Ctrl] showed nd (0 of 6 replicates). Variant KMSQSDLYESRNKNSVA / DASTRES / QQYHRLPLS [GP_Gen] showed -0.60 (6 of 6 replicates). Variant KSSQSVLYESWNSNSVA / HASTRES / QQYHRLPLS [Ctrl] showed 0.33 (6 of 6 replicates).

For KSFQSELYESRNKNSVA / WASTRES / QGYHRLPLS [Ctrl], the assay gave nd (0 of 6 replicates). For KFSQSVLYESRTSNNVA / NASTRES / QQYHRLPLS [GP_HC], the assay gave 0.47 (6 of 6 replicates). Variant KSSTSGLYESAMKNSVA / EASTRES / QQYHRLPLS [GP_HC] showed 1.47 (6 of 6 replicates). With KVSQSWLYEDRVKNSVA / GADTRES / QQYHRLPLS [GP_HC] the result was 0.34 (6 of 6 replicates). Variant KSLQSQLYESRNKNSVA / HASTRED / QQYHQLPLS [GP_HC] gave 0.20 (6 of 6 replicates). With KLSQSDLYESRNKNSVA / NASKRES / QQYHRLPLS [GP_Gen] the result was -0.07 (6 of 6 replicates). Variant KLSQSMGYESRNKNSVA / NASTRMS / QQYHRLPLS [GP_Gen] gave -0.05 (6 of 6 replicates).

Variant KSSWSVLYESRNKNSVA / WASTRES / QSEHRLPLS [Ctrl] gave nd (0 of 6 replicates). Variant KSDQSELQESRNQNSVA / WASTRES / QQKHRLPLS [Ctrl] gave nd (0 of 6 replicates). Variant KSSISYLYESGNKNSVA / NASTRES / QQYHRLPLS [GP_HC] gave 0.25 (6 of 6 replicates). Variant KLPQSDLYESRNKNSVA / NASTRES / QQYHRLPLS [GP_Gen] showed -0.23 (6 of 6 replicates). For KLSDSVLYESRNKNSVA / NASTRES / QQYHRLPLN [GP_HC], the assay gave 0.18 (6 of 6 replicates).

Top 3 of the variants detected in all replicates, tightest first:

With KMSQSDLYESRNKNSVA / DASTRES / QQYHRLPLS [GP_Gen] the result was -0.60 (6 of 6 replicates).
With KFSQSVLYESRVKNSVA / EASTRES / QQYHRLPLS [GP_HC] the result was -0.31 (6 of 6 replicates).
With KLSQSVEYESRNKNSVA / EASTREV / QQYHRLPLS [GP_Gen] the result was -0.26 (6 of 6 replicates).

As a blank, each scFv also met three strains without target: over all light chain designs, 4% of these pairings were detected, typically at 2.64 and seldom below 1.59.
A sequence measured in both rounds can read differently, since the two assays cover different ranges.

The measurements come from Li et al. 2023 (doi:10.1038/s41467-023-39022-2) through the FLAb antibody collection.